Laboratory results reported in patent EP2181998B1, “New benzothiazinone derivative and its use as antibacterial agent” (priority 2006, dated 2007).
≈ marks a conversion by molar mass, not a printed value. Read-outs that look alike come from different tables or passages of the source.

Tested on: M. tuberculosis H37Rv
Experiment: microbe, parasite or virus in culture
Settings: Mycobacterium tuberculosis

## N#Cc1cc([N+](=O)[O-])c2sc(N3CCC4(CC3)OCCO4)nc(=O)c2c1 [Compound 9, 2-(1,4-dioxa-8-azaspiro[4.5]dec-8-yl)-8-nitro-4-oxo-1,3-benzothiazine-6-carbonitrile]
  MBC: 0.29 µg/mL (≈ 0.775 µM)
  MIC: 0.195 µg/mL (≈ 0.521 µM)

## NNC(=O)c1ccncc1 [Isoniazid (INH), Isoniazid, reference compound]
  MBC: 1.15 µg/mL (≈ 8.39 µM)
  MIC: 0.97 µg/mL (≈ 7.07 µM)
read-out: MBC (µg/mL) mean
  MBC: 1.15 µg/mL (≈ 8.39 µM)
read-out: MIC (µg/mL) mean
  MIC: 0.97 µg/mL (≈ 7.07 µM)

## CC1OC2(CCN(c3nc(=O)c4cc(C(F)(F)F)cc([N+](=O)[O-])c4s3)CC2)OC1C (centres unmarked) [Compound 5, 2-(2,3-dimethyl-1,4-dioxa-8-azaspiro[4.5]dec-8-yl)-8-nitro-6-(trifluoromethyl)-1,3-benzothiazin-4-one]
  MBC: 0.58 µg/mL (≈ 1.3 µM)
  MIC: 0.39 µg/mL (≈ 0.876 µM)

## CC1COC2(CCN(c3nc(=O)c4cc(C#N)cc([N+](=O)[O-])c4s3)CC2)O1 (centres unmarked) [Compound 10, 2-(2-methyl-1,4-dioxa-8-azaspiro[4.5]dec-8-yl)-8-nitro-4-oxo-1,3-benzothiazine-6-carbonitrile]
  MBC: 0.58 µg/mL (≈ 1.49 µM)
  MIC: 0.39 µg/mL (≈ 1 µM)

## CC1COC2(CCN(c3nc(=O)c4cc(C(F)(F)F)cc([N+](=O)[O-])c4s3)CC2)O1 (centres unmarked) [Compound 2, 2-(2-methyl-1,4-dioxa-8-azaspiro[4.5]dec-8-yl)-8-nitro-6-(trifluoromethyl)-1,3-benzothiazin-4-one]
  MBC: 0.58 µg/mL (≈ 1.34 µM)
  MIC: 0.39 µg/mL (≈ 0.904 µM)

## O=c1nc(N2CCC3(CC2)OCCO3)sc2c([N+](=O)[O-])cc(C(F)(F)F)cc12 [Compound 1, 2-(1,4-dioxa-8-azaspiro[4.5]dec-8-yl)-8-nitro-6-(trifluoromethyl)-1,3-benzothiazin-4-one]
  MBC: 0.58 µg/mL (≈ 1.39 µM)
  MIC: 0.39 µg/mL (≈ 0.934 µM)
